Results published in patent US20250353912A1, “COMPOSITIONS AND METHODS COMPRISING ANTIBODIES THAT BIND TO COVALENT PEPTIDE CONJUGATES” (New York University, priority 2022, published 2025).

Legend:
Format in all cases: cell-based
lung cancer cell lines = assay: Cytotoxicity of scDb on drug-treated lung cancer cell lines with human T cells (PrestoBlue viability); settings: 100 nM AMG-510 for 24 hr, human T-cells E:T=5:1, FIG. 19A
Description: FIGS. 19A and 19B. Graphs showing specific cytotoxic effect of AMRA3-7_UCHT1 scDb on drug-treated lung cancer cell lines. […] After incubation, cell viability was measured. […] Data shown here are from quadruplicate measurements.
To obtain the results for FIG. 19, lung cancer cell lines were cultured in RPMI supplemented with 10% fetal bovine serum (FBS) and penicillin/streptomycin. For cytotoxicity assays, 1×10^4 cells/well were seeded in 96-well flat bottom plates and incubated at 37° C., 5% CO2 for 24 hours. Media were replaced with fresh media supplemented with 100 nM AMG-510 or DMSO, then the cells were incubated for 24 hours at 37° C. After incubation, cells were co-cultured with human T cells (E:T=5:1) and AMRA3-7_UCHT1 scDb in the presence of 100 IU/mL IL-2 for 24 hr at 37° C. Cell viability was assessed by using PrestoBlue™ Cell Viability Reagent (ThermoFisher, A13261). Cytotoxicity was calculated by taking the fluorescent signal of a given well, subtracting the fluorescent signal from the wells that contain only T-cells, and normalizing to the fluorescent signal from the wells without scDb.

Raji cells = assay: Cytotoxicity of scDb on AMG510-treated wild-type KRAS cells with human T cells (flow cytometry); settings: 1 μM AMG-510, T-cells E:T=5:1, 18 hr, FIG. 38
OCI-AML3 cells = assay: Cytotoxicity of scDb with human T cells (flow cytometry viability of CSFE-positive cells); settings: for cytotoxic effect on cells treated with the same peptide without drug conjugation: OCI-AML3, 1 μM EGFR-bME, FIG. 41; for cytotoxic effect on cells spiked with the osimertinib-EGFR peptide conjugate: OCI-AML3, 1 μM peptide conjugate, T-cells E:T=5:1, FIG. 41; for cytotoxic effect on OCI-AML3 cells treated with osimertinib: cells do not possess the target of osimertinib, FIG. 42
Excerpt: FIG. 41. Cytotoxic effect of scDb antibodies on the cells spiked with the drug-peptide conjugates. […] BB7.2 scDb is an anti-pan HLA-A2 clone, which was used as a positive control. Data shown are from triplicate measurements.
FIG. 42. Cytotoxic effects of scDb antibodies on OCI-AML3 cells treated with osimertinib. […] BB7.2 scDb is an anti-pan HLA-A2 clone, which was used as a positive control. Data shown are from triplicate measurements.
OCI-AML3 cells were culture in IMDM supplemented with 20% fetal bovine serum (FBS) and penicillin/streptomycin. OCI-AML3 cells were first stained with carboxyfluorescein succinimidyl ester (CSFE, ThermoFisher, 65-0850-84), then incubated with the final 1 μM EGFR-osimertinib peptide, or 1 μM EGFR peptide pretreated with beta-mercaptoethanol (EGFR-bME) (FIG. 41) or 1 mM osimertinib (FIG. 42) in the presence of 10 μg/mL human beta-2 microglobulin for 4 hr. The cells were harvested using centrifugation and washed in the media. The cells were then co-cultured with human T-cells (E:T=5:1) in the presence of scDb for 18-19 hr. After incubation, cells were harvested and washed with PBS, then stained with Fixable Viability Dye eFluor660 (ThermoFisher, 65-0864-14). After washing cells, the cells were analyzed on iQue screener (Satorius) and the viability of CSFE-positive cells was assessed.

Molecule	cytotoxic effect on drug-treated lung cancer cell lines (lung cancer cell lines)	cytotoxic effect on AMG510-treated Raji cells (wild-type KRAS, HLA-A*03) (Raji cells)	cytotoxic effect on cells treated with the same peptide without drug conjugation (OCI-AML3 cells)	cytotoxic effect on cells spiked with the osimertinib-EGFR peptide conjugate (OCI-AML3 cells)	cytotoxic effect on OCI-AML3 cells treated with osimertinib (OCI-AML3 cells)
AMRA3-7_UCHT1 scDb: single-chain Diabody targeting HLA-A*03:01 and HLA-A*11:01 RAS-AMG510, with UCHT1 (protein) DIVRSDIQMTQSPSSLSASVGDRVTITCRASQSVSSAVAWYQQKPGKAPKLLIYSASSLYSGVPSRFSGSRSGTDFTLTISSLQPEDFATYYCQQISYVYSLITFGQGTKVEIKGGGGSEVQLQQSGPELVKPGASMKISCKASGYSFTGYTMNWVKQSHGKNLEWMGLINPYKGVSTYNQKFKDKATLTVDKSSSTAYMELLSLTSEDSAVYYCARSGYYGDSDWYFDVWGQGTTLTVSSGGGGSGGGGSGGGGSDIQMTQTTSSLSASLGDRVTISCRASQDIRNYLNWYQQKPDGTVKLLIYYTSRLHSGVPSKFSGSGSGTDYSLTISNLEQEDIATYFCQQGNTLPWTFAGGTKLEIKGGGGSEVQLVESGGGLVQPGGSLRLSCAASGFTFSSYSIHWVRQAPGKGLEWVASIYSSYGYTSYADSVKGRFTISADTSKNTAYLQMNSLRAEDTAVYYCARGGWYPAMDYWGQGTLVTVSSLEGGGGLNDIFEAQKIEWHESRHHHHHH	dose-dependent cytotoxic effects only on AMG510-treated cells with the cognate KRAS mutation (G12C) and HLA (HLA-A3)	Lack of cytotoxic effect	–	–	–
EO_Q16 scDb: single-chain Diabody built from EO_Q16 and UCHT1 (protein) DIVRSDIQMTQSPSSLSASVGDRVTITCRASQSVSSAVAWYQQKPGKAPKLLIYSASSLYSGVPSRFSGSRSGTDFTLTISSLQPEDFATYYCQQYSDWPITFGQGTKVEIKGGGGSEVQLQQSGPELVKPGASMKISCKASGYSFTGYTMNWVKQSHGKNLEWMGLINPYKGVSTYNQKFKDKATLTVDKSSSTAYMELLSLTSEDSAVYYCARSGYYGDSDWYFDVWGQGTTLTVSSGGGGSGGGGSGGGGSDIQMTQTTSSLSASLGDRVTISCRASQDIRNYLNWYQQKPDGTVKLLIYYTSRLHSGVPSKFSGSGSGTDYSLTISNLEQEDIATYFCQQGNTLPWTFAGGTKLEIKGGGGSEVQLVESGGGLVQPGGSLRLSCAASGFTISSSYIHWVRQAPGKGLEWVAYISPSYGSTSYADSVKGRFTISADTSKNTAYLQMNSLRAEDTAVYYCAREYVTMSIDYWGQGTLVTVSSLEGGGGLNDIFEAQKIEWHESRHHHHHH	–	–	not on the cells treated with the same peptide without drug conjugation	potent cytotoxic effects	did not show cytotoxic effects
EO_Q17 scDb: single-chain Diabody built from EO_Q17 and UCHT1 (protein) DIVRSDIQMTQSPSSLSASVGDRVTITCRASQSVSSAVAWYQQKPGKAPKLLIYSASSLYSGVPSRFSGSRSGTDFTLTISSLQPEDFATYYCQQYSSWPITFGQGTKVEIKGGGGSEVQLQQSGPELVKPGASMKISCKASGYSFTGYTMNWVKQSHGKNLEWMGLINPYKGVSTYNQKFKDKATLTVDKSSSTAYMELLSLTSEDSAVYYCARSGYYGDSDWYFDVWGQGTTLTVSSGGGGSGGGGSGGGGSDIQMTQTTSSLSASLGDRVTISCRASQDIRNYLNWYQQKPDGTVKLLIYYTSRLHSGVPSKFSGSGSGTDYSLTISNLEQEDIATYFCQQGNTLPWTFAGGTKLEIKGGGGSEVQLVESGGGLVQPGGSLRLSCAASGFTISSSYIHWVRQAPGKGLEWVAYISPSYGSTSYADSVKGRFTISADTSKNTAYLQMNSLRAEDTAVYYCARELVEMTPDYWGQGTLVTVSSLEGGGGLNDIFEAQKIEWHESRHHHHHH	–	–	not on the cells treated with the same peptide without drug conjugation	potent cytotoxic effects	did not show cytotoxic effects
